These results are taken from ChEMBL document CHEMBL5512636, “Novel 6-hydroxybenzothiazol-2-carboxamides as potent and selective monoamine oxidase B inhibitors endowed with neuroprotective activity” (Eur J Med Chem, 2024).

Protein sequences, listed by entry. Tags and fused reporters are not part of them.
UniProt P10636, whole entry: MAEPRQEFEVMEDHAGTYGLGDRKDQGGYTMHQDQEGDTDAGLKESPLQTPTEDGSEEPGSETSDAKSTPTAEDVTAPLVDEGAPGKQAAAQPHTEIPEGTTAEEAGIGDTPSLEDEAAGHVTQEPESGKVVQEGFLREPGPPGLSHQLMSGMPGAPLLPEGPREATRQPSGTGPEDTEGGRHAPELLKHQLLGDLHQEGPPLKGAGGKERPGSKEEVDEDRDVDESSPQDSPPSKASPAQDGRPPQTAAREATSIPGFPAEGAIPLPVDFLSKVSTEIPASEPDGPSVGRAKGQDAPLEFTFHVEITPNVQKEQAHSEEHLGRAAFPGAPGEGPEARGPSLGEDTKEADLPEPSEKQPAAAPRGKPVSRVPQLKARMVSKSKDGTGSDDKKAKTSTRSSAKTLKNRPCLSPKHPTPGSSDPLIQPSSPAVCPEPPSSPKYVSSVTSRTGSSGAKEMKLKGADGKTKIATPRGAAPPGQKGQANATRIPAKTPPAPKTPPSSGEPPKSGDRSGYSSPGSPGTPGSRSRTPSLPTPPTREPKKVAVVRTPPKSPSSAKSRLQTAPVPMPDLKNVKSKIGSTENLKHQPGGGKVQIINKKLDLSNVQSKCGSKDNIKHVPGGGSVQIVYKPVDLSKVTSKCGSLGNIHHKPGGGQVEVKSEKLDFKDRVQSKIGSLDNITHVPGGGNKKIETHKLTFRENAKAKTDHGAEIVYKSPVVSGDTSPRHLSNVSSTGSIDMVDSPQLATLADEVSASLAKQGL

The target of assay [1] is T1, PHD finger protein 6 (Homo sapiens) (UniProt Q8IWS0).
T1 sequence (whole entry): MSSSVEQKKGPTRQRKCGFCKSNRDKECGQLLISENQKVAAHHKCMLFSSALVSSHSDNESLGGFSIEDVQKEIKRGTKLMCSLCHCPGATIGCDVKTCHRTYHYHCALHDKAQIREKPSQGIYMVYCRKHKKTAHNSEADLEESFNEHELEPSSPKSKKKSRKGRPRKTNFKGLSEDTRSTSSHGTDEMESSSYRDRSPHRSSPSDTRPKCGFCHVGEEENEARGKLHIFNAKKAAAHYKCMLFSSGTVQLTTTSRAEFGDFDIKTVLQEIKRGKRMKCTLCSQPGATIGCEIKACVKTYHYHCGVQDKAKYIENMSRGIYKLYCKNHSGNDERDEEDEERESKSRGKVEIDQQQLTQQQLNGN
As to the kind of experiment: Inhibition of PHF6 (unknown origin) aggregation at 10 uM incubated for 4 hrs by ThT fluorescence based R3 aggregation assay relative to control.

For assay [2], the target named is T1, PHD finger protein 6 (Homo sapiens). As to the kind of experiment: Inhibition of PHF6 (unknown origin) aggregation at 25 uM incubated for 3 hrs by ThT fluorescence based assay relative to control.
Assay [3] concerns the target Microtubule-associated protein tau (Homo sapiens, UniProt P10636). As to the kind of experiment: Inhibition of GFP/RFP-fused tau oligomerization in human SH-SY5Y cells at 10 uM incubated for 2 hrs by FRET assay. The format is cell-based.

Activity calls are given as the source filed them. The calls are words filed in the database; no cut-off is given here.

In assay [1], `Cc1cc(C)cc(CNC(=O)c2nc3ccc(O)cc3s2)c1` had an inhibition of more than 50%.

As to `O=C(NCc1ccc(F)c(F)c1)c1nc2ccc(O)cc2s1`, the inhibition in assay [1] and in assay [2] was more than 50% in each case.

On to `COc1ccc(CNC(=O)c2nc3ccc(O)cc3s2)cc1F`, for which, in assay [1], the inhibition was more than 50%.

On to `O=C(NCc1cccc(F)c1F)c1nc2ccc(O)cc2s1`, for which the inhibition in assay [1] and in assay [2] was more than 50% throughout.

As to `O=C(NCCc1ccccc1)c1nc2ccc(O)cc2s1`, the inhibition in assay [1] and in assay [2] was more than 50% each time. Also, the inhibition result in assay [3] is “Active”.

In assay [1], `O=C(NCc1cccs1)c1nc2ccc(O)cc2s1` registered an inhibition of more than 50%.

Consider `COc1ccc(CNC(=O)c2nc3ccc(O)cc3s2)c(OC)c1`, for which the inhibition in assay [1] was more than 50%.

In assay [1], `O=C(NCc1ccc([N+](=O)[O-])cc1)c1nc2ccc(O)cc2s1` showed an inhibition of more than 50%.

Turning to `O=C(NC1CCCCC1)c1nc2ccc(O)cc2s1`, the inhibition in assay [1] and in assay [2] was more than 50% throughout.

Turning to `CCCCCCNC(=O)c1nc2ccc(O)cc2s1`, the inhibition in assay [1] was more than 50%.

In the case of `O=C(NCCc1cc2ccccc2[nH]1)c1nc2ccc(O)cc2s1`, the inhibition in assay [1] and in assay [2] was more than 50% throughout. Further, in assay [3], the inhibition entry is “Active”.

Compound `O=c1c(O)c(-c2ccc(O)c(O)c2)oc2cc(O)cc(O)c12` returned an inhibition in assay [1] of more than 50%.

In assay [1], `COc1ccc(CNC(=O)c2nc3ccc(O)cc3s2)cc1OC` gave an inhibition of more than 50%.
